# Yeast mating assay B: variants of the scFv Ab-14

Antigen: PDVDLGDISGINAS, a 14-residue peptide of the SARS-CoV-2 spike HR2 region.

Parent: Ab-14, a human scFv built as VH, a (GGGGS)3 linker, VL. Only the CDRs of the light chain vary.
VH: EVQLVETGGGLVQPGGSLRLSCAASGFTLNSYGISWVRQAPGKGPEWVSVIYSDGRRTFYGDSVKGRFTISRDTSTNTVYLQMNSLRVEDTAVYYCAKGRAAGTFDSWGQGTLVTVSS
VL: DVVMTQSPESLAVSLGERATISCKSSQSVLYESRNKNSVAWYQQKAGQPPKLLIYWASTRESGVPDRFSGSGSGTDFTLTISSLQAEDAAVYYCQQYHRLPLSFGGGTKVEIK

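The parent was found by panning a naive human phage display library on the peptide. These sequences belong to a second round, designed from the earlier measurements on random variants of the parent. Several design methods are mixed in this list. AlphaSeq pools MATa yeast showing the antibodies with MATalpha yeast showing the peptide. Mating (16 h, 30 °C) was followed by selection of diploids and sequencing of their barcodes. Each replicate has its own calibration line, from reference interactions of the BCL2 family. The assay was run in six technical replicates.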

Positions count from residue 1 of the parent VL; V29M puts M in place of V. This list holds designs with at most six substitutions. The read-out is the apparent dissociation constant on a log10 scale (nM): the lower, the stronger. A mean of the replicates is given; it leaves out those without a signal. "nd" marks a missing value. The strain was present, yet no cells mated with the target were sequenced in any replicate, which points to weak or no binding. Nonspecific signal, from three strains lacking the peptide, appeared in 4% of pairings of all light chain designs, centred on 2.64 (5% of these signals below 1.59); values are not corrected for it. Also given: how often the same scFv was detected with the empty control strains. The range of this assay differs from that of the first round, and the authors advise against merging the two. In the paper, a design with two or fewer of six values counts as a poor binder.

- V29M+S33I = nd (0 of 6 replicates; controls 0 of 18)
- S25M+W56H+T59E = -0.46 (6 of 6 replicates; controls 1 of 18)
- Y31Q+Q96T = 2.36 (3 of 6 replicates; controls 1 of 18)
- S25L+S33D+K36S+W56N = 0.09 (6 of 6 replicates; controls 1 of 18)
- S26T+R34N+W56E+S103E = 0.47 (6 of 6 replicates; controls 0 of 18)
- S26G+S103F = 1.46 (2 of 6 replicates; controls 0 of 18)
- W56A+T59M+S62H+H98W = 0.89 (6 of 6 replicates; controls 2 of 18)
- K24A = nd (0 of 6 replicates; controls 0 of 18)
- S25L+V29E+W56N+E61L+S62E = -0.15 (6 of 6 replicates; controls 0 of 18)
- S25L+L30W+W56E+E61C = 0.37 (6 of 6 replicates; controls 0 of 18)
- S25L+W56H+E61M = 0.18 (6 of 6 replicates; controls 0 of 18)
- S25F+V29W+W56G+T59L = 0.02 (6 of 6 replicates; controls 0 of 18)
- S25L+V29Q+W56E+S58H+T59H+S62H = -0.15 (6 of 6 replicates; controls 1 of 18)
- S25L+S26Q+S28Q+V29W+W56S+S62L = 0.32 (6 of 6 replicates; controls 1 of 18)
- Q27I+V29Y+R34G+W56E+T59Q = 0.50 (6 of 6 replicates; controls 0 of 18)
- K24H+W56Y+T59V = 1.47 (5 of 6 replicates; controls 0 of 18)
- S26P+V29N+L30T+Y31K+R34Y+S62D = 1.32 (6 of 6 replicates; controls 0 of 18)
- S25V+Y31D+K36G+S38N = 1.21 (6 of 6 replicates; controls 1 of 18)
- Q27I+V29Y+R34P+W56E = 0.05 (6 of 6 replicates; controls 1 of 18)
- S25L+S26M+V29E+L30G+W56N+T59Q = -0.25 (6 of 6 replicates; controls 2 of 18)
- Q27P+R34L+L102P+S103E = nd (0 of 6 replicates; controls 0 of 18)
- S25M+W56D+H98Q = -0.56 (6 of 6 replicates; controls 2 of 18)
- K36W+S62A = 1.85 (6 of 6 replicates; controls 1 of 18)
- Q27T+W56S+Q96S = 0.18 (6 of 6 replicates; controls 0 of 18)
- S25C+K36H+W56Y = 0.70 (6 of 6 replicates; controls 2 of 18)
- W56S+S62W+R99D = 2.43 (1 of 6 replicates; controls 0 of 18)
- S25L+V29D+N35T+W56N = -0.36 (6 of 6 replicates; controls 2 of 18)
- Y31N+K36D+W56S+S62A = 1.34 (6 of 6 replicates; controls 1 of 18)
- S25L+S26E+V29I+L30E+W56N = 0.00 (6 of 6 replicates; controls 0 of 18)
- S25L+S26Q+V29D+W56N+T59Q+E61L = 0.05 (6 of 6 replicates; controls 0 of 18)
- S25L+S26P+V29M+L30E+W56H = -0.33 (6 of 6 replicates; controls 1 of 18)

Picked from the list: the 3 lowest averages where every replicate gave a value.

- S25M+W56D+H98Q -> -0.56 (6 of 6 replicates; controls 2 of 18)
- S25M+W56H+T59E -> -0.46 (6 of 6 replicates; controls 1 of 18)
- S25L+V29D+N35T+W56N -> -0.36 (6 of 6 replicates; controls 2 of 18)

From the AlphaSeq antibody data of Li et al. 2023 (doi:10.1038/s41467-023-39022-2), copy in the FLAb collection.